Test results published in paper doi:10.1101/2025.06.17.660082 (bioRxiv, 2025).

Molecular target: T1, mouse GIPR on CRE-Luc2P reporter cells (mouse, UniProt Q0P543 19-460)
T1 sequence (looked up): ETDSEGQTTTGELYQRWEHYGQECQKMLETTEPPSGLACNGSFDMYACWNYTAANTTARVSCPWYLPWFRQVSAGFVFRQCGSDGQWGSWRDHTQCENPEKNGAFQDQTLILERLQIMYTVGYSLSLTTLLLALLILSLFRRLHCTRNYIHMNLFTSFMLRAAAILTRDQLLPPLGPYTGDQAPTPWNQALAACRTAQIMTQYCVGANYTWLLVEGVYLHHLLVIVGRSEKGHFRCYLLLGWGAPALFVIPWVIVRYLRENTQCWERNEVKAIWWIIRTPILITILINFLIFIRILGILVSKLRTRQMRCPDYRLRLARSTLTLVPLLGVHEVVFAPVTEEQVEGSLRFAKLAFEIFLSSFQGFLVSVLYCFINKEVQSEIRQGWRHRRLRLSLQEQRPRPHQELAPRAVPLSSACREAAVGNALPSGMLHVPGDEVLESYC
Experiment: cell-based or functional assay

luciferase (cAMP) reporter in CRE-Luc2P cells overexpressing mGIPR, EC50: 2.85 nM
Binder: YAEGTFISDYSIAMDKIHQQDFVNWLLAQKGKKNDWKHNITQ (ligand, UniProt P09681 52-93, looked up) [human GIP (gastric inhibitory peptide)]
